Laboratory results from patent US11963980B2, “Activated CD26-high immune cells and CD26-negative immune cells and uses thereof” (MUSC FOUNDATION FOR RESEARCH DEVELOPMENT, priority 2016, dated 2024).
“Also recorded” adds a separate entry of the source.

System: CD4^+CD26^high cells
Details: 2.5 nM Alogliptin, N=4

## Cn1c(=O)cc(N2CCC[C@@H](N)C2)n(Cc2ccccc2C#N)c1=O [Alogliptin]
  Granzyme B (cytotoxin) secretion of CD4+CD26high cells: less Granzyme B and less
  function / cytokine secretion of CD4+CD26high cells: reduced; also recorded: less cytokines
